Patent US20210221866A1, “PROTEASE-RESISTANT LIPIDATED GLP-1 ANALOGS” (MEDIMMUNE LIMITED, priority 2015, published 2021)

The chains behind the UniProt entries cited, without tags or fusion partners. Residues count along the entry.
UniProt P43220, 24-463: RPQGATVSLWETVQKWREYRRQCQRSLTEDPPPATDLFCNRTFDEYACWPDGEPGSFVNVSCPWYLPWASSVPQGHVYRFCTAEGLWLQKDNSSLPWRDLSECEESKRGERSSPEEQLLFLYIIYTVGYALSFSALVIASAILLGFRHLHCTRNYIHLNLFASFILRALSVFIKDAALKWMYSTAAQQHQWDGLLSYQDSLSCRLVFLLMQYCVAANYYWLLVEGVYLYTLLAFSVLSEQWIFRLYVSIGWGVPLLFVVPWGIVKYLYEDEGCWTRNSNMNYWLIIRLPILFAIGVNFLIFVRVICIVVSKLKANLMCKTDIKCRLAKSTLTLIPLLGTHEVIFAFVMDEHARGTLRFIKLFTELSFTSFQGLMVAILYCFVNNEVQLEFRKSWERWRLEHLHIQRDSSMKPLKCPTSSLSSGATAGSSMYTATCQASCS

Target: T1, human GLP-1 receptor (GLP-1R) (Homo sapiens, UniProt P43220)
T1 construct: expressed in transfected cells; host or cells: HEK293 cells or CHO cells
Experiment: cAMP assay, human GLP-1R cells
Type: cell-based
Protocol: Sample dilutions are made in duplicate.
A frozen cryo-vial of cells expressing the receptor of interest is thawed rapidly in a water-bath, transferred to pre-warmed assay buffer and spun at 240×g for 5 minutes. Cells are re-suspended in assay buffer at a batch-dependent optimized concentration (e.g. hGCGR cells at 2×10^5 cells/ml, hGLP-1R and hGIPR cells at 1×10^5 cells/ml).
To this, 5 μL cell suspension is added and the plates incubated at room temperature for 30 minutes.
cAMP levels are measured using a commercially available cAMP dynamic 2 HTRF kit (Cisbio, Cat #62AM4PEJ), following the two step protocol as per manufacturer's recommendations. In brief; anti-cAMP cryptate (donor fluorophore) and cAMP-d2 (acceptor fluorophore) are made up separately by diluting each 1/20 in conjugate & lysis buffer provided in the kit. 5 μL anti-cAMP cryptate is added to wells of the assay plate, and 5 μL cAMP-d2 is added to wells except non-specific binding (NSB) wells, to which conjugate and lysis buffer are added. […] EC50 values of the synthetic peptides determined in cAMP assays are then determined.
Data is transformed to % Delta F as described in the manufacturer's guidelines and analyzed by 4-parameter logistic fit to determine EC50 values. […] To compare the balance of activities at the GLP-1R and GCGR between different peptides and across different conditions, these can be correlated, where the EC50's are related to those of comparator peptides.

Q: With `CCCCCCCCCCCC(=O)N[C@@H](CCC(=O)NCCOCCOCC(=O)NCCOCCOCC(=O)NCCCC[C@H](NC(=O)[C@H](CCC(=O)O)NC(=O)[C@H](CC(C)C)NC(=O)[C@H](Cc1ccc(O)cc1)NC(=O)[C@H](CO)NC(=O)[C@H](CO)NC(=O)[C@H](CCCCNC(=O)COCCOCCNC(=O)COCCOCCNC(=O)CC[C@H](NC(=O)CCCCCCCCCCC)C(=O)O)NC(=O)[C@H](CC(=O)O)NC(=O)[C@H](CO)NC(=O)[C@@H](NC(=O)[C@](C)(Cc1ccccc1)NC(=O)[C@H](CO)NC(=O)CNC(=O)[C@H](CCC(=O)O)NC(=O)C(C)(C)NC(=O)[C@@H](N)Cc1c[nH]cn1)[C@@H](C)O)C(=O)N[C@@H](CCC(=O)O)C(=O)N[C@@H](C)C(=O)N[C@@H](C)C(=O)N[C@@](C)(CCCCN)C(=O)N[C@@H](CCC(=O)O)C(=O)N[C@@H](Cc1ccccc1)C(=O)N[C@H](C(=O)N[C@@H](CCCCNC(=O)COCCOCCNC(=O)COCCOCCNC(=O)CC[C@H](NC(=O)CCCCCCCCCCC)C(=O)O)C(=O)N[C@@H](Cc1ccccc1)C(=O)N[C@H](C(=O)N[C@H](C(=O)N[C@@H](CCC(=O)O)C(=O)NCC(=O)NCC(N)=O)C(C)C)C(C)C)[C@@H](C)CC)C(=O)O` [compound 439] as the compound, how does the EC50 (Primary assay EC50 GLP-1R n1, Table 11, tris-lipidated peptides, replicate n1) read?
A: 59.9 pM

Q: What about the EC50 (Primary assay EC50 GLP-1R n2, Table 11, tris-lipidated peptides, replicate n2) of the same compound?
A: 134 pM

Q: And the EC50 (Primary assay EC50 Mean pM GLP-1R, Table 11, tris-lipidated peptides, mean of n1 and n2)?
A: 97 pM
